From ChEMBL document CHEMBL4732230, “Design, synthesis, and biological evaluation of 4-benzoylamino-1H-pyrazole-3-carboxamide derivatives as potent CDK2 inhibitors” (Eur J Med Chem, 2021)

By UniProt entry, the sequences of proteins in these tests, tags left out.
UniProt P06493, whole entry: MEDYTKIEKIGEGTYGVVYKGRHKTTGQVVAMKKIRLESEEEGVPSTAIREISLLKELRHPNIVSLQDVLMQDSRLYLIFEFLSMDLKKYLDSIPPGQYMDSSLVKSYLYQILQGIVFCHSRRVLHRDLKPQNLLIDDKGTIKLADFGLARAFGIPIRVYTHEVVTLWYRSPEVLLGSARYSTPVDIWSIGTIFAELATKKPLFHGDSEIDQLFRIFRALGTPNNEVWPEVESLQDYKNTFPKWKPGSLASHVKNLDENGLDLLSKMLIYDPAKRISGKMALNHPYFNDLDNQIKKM

Target: Cyclin-dependent kinase 1/cyclin B1 (Homo sapiens, UniProt P06493)
Type: protein-complex assay

IC50: 594 nM
Structure (SMILES): O=C(NC1CCNCC1)c1n[nH]cc1NC(=O)c1c(F)cccc1F
